scFv variants of Ab-14 (heavy chain) against a SARS-CoV-2 spike peptide

Reference: Engelhart et al. 2022, doi:10.1038/s41597-022-01779-4. File: FLAb, binding data.

All variants were tested on one target, the spike HR2 peptide PDVDLGDISGINAS (SARS-CoV-2).

Ab-14 is the parent antibody, in scFv form: VH, then a (GGGGS)3 linker, then VL. The light chain is unchanged in all variants.
VH: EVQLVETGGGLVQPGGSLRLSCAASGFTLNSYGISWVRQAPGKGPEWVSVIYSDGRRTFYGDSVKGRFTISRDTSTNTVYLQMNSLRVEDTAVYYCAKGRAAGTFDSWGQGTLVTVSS
VL: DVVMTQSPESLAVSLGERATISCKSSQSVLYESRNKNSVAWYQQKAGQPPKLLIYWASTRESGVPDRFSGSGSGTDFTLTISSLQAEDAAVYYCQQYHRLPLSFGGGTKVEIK

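The library (AAYL49) carries one to three amino acid substitutions per variant, with no insertions or deletions. The assay is AlphaSeq: two haploid yeast populations carry antibody and antigen on their surface. Mating (16 h, 30 °C) was followed by selection of diploids and sequencing of their barcodes. A regression on co-assayed BCL2-family reference pairs converts the normalised counts of each replicate to an apparent Kd. There are three technical replicates.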

Positions count from residue 1 of the parent VH; V64M puts M in place of V.
All variants listed here change A101 of the VH, counted from its first residue.
Affinities are written as log10 Kd with Kd in nM; a lower number is a better binder.
"nd" means that the variant was in the library but no mating with the target was seen in that replicate; the authors take this as a sign of poor binding, and no number exists.
Background: pairings of library AAYL49 with three empty control strains gave a value in 15% of cases (median 4.06, 5th percentile 2.83). Values in that range, when seen in few replicates, are hard to tell from nonspecific mating.

* V64M A101Q D106A: nd, nd, nd
* S31T F59H A101K: nd, nd, nd
* R57H S63R A101P: nd, 3.95, nd
* F27G S53H A101R: 2.52, 3.34, 3.85
* A101R G103T T104C: nd, nd, nd
* G99W A101D T104A: nd, nd, nd
* I34T F59Y A101T: nd, nd, nd
* K65N A101C A102Y: 3.42, nd, nd
* R56D F59M A101Y: 1.06, 1.36, 2.20
* S53M R56N A101I: nd, nd, nd
* S31W I34T A101S: 3.71, nd, nd
* Y52R A101E D106M: nd, nd, nd
* G26N S35M A101W: nd, nd, nd
* G61L G99N A101K: nd, 3.66, 6.15
* Y52C D62L A101V: nd, nd, nd
* V50P G99N A101K: nd, nd, nd
* R56D T58S A101L: 0.63, 1.17, 0.90
* G26A G33W A101V: nd, nd, nd
* G33P G61Y A101D: nd, 3.50, nd
* V50G Y60V A101S: nd, nd, nd
* G26H Y60T A101Q: 2.62, 2.80, 2.53
* T58L A101K T104Y: 4.22, nd, 2.59
* S31F I34G A101Q: nd, nd, nd
* S53H A101P: 2.63, nd, nd
* G33L F59K A101W: nd, nd, nd
* R57D R100L A101T: nd, nd, nd
* F27L K65R A101W: 5.11, 2.93, nd
* Y52K A101C: 3.31, nd, nd
* I51L A101C G103N: 1.66, 1.39, 2.32
* G33D S63I A101I: nd, nd, nd
* L29H R100P A101Q: nd, nd, nd
* L29T A101R S107E: nd, nd, 3.69
* I34F I51K A101Y: 4.54, 5.07, nd
* G33V I34G A101Q: nd, nd, nd
* I51M F59T A101E: 1.91, 2.03, 3.01
* S31M D54V A101V: nd, nd, nd
* G26H V50N A101Y: nd, 5.55, nd
* I34V A101K: nd, 3.46, nd
* T58A A101T F105V: nd, nd, nd
* A101G: 3.47, nd, 2.28
* I34K Y52R A101Y: 4.44, 3.53, nd
* R56S V64F A101G: nd, 4.21, nd
* A101L: 1.37, 1.46, 1.33
* Y32K V50E A101E: nd, nd, nd
* S31R G33C A101Q: nd, nd, nd
* Y60T G99D A101I: nd, nd, nd
* D54K G99M A101N: nd, nd, nd
* Y52S T58M A101D: nd, nd, nd
* I34Q A101R D106H: nd, nd, nd
* S53L R57I A101Q: nd, nd, nd